Antibody variant affinities, Ab-91 heavy chain, assay 2

Binding partner: SARS-CoV-2 spike HR2 peptide, sequence PDVDLGDISGINAS.

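Library AAYL51 holds single substitutions and randomly drawn double and triple substitutions in the CDRs. The assay is AlphaSeq: two haploid yeast populations carry antibody and antigen on their surface. Binding brings cells together so that they mate, and sequencing counts the barcode pairs among the diploids. A regression on co-assayed BCL2-family reference pairs converts the normalised counts of each replicate to an apparent Kd. Mating was done three times.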

Parent scFv Ab-91: VL joined to VH by the linker GGGGSGGGGSGGGGS. Changes lie in the heavy chain CDRs alone.
VL: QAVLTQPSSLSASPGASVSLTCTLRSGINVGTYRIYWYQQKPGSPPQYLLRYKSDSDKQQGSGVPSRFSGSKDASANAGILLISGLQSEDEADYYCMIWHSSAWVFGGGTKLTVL
VH: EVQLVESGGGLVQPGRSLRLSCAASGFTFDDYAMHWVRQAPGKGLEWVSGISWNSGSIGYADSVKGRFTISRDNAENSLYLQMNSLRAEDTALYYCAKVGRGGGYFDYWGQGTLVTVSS

Changes read parent residue, position, new residue, counted from the first residue of the VH shown. Affinities are written as log10 Kd with Kd in nM; a lower number is a better binder. Where no diploid with the target was found in that replicate, the entry reads "n.d.": below detection, most likely a poor binder, though not proof of it. In this assay the parent's reference entry averaged 1.86; its copy inside this library read 0.88. As a blank, each scFv also met three strains without target: over library AAYL51, 21% of these pairings were detected, typically at 4.54 and seldom below 3.26. For each scFv, signals with the empty controls are counted beside the result, with their mean in brackets.

| changes | log10 Kd (nM) by replicate | empty controls |
|---|---|---|
| V99P+G100S | 4.66 6.21 n.d. | 2/9 (3.75) |
| I51N+V64G+R101Y | n.d. n.d. n.d. | 1/9 (2.89) |
| Y60F+G102V+Y108V | 2.76 2.73 2.57 | 2/9 (5.21) |
| D30V+G59H | 5.11 n.d. n.d. | 1/9 (5.99) |
| D31Q+S57F+K65A | 2.16 2.12 1.63 | 0/9 |
| D30Q+M34Q+K65Q | n.d. n.d. n.d. | 1/9 (4.13) |
| F29Y+H35D+R101N | 5.40 4.75 n.d. | 2/9 (3.72) |
| A33D+H35E+F106L | n.d. n.d. n.d. | 1/9 (3.90) |
| M34V+G59C+G100Q | 5.80 4.57 n.d. | 6/9 (5.18) |
| N54V | n.d. n.d. n.d. | 1/9 (4.87) |
| T28A+I51V+A61Q | 2.71 2.51 2.40 | 2/9 (4.71) |
| Y32M+S55N+V99H | n.d. n.d. n.d. | 0/9 |
| F27N+Y32H+I58E | n.d. n.d. n.d. | 0/9 |
| M34Y+G103M+G104F | n.d. n.d. n.d. | 3/9 (4.66) |
| I58V+R101I+G103E | n.d. n.d. n.d. | 0/9 |
| A33H+Y60G+G102L | n.d. n.d. n.d. | 2/9 (4.23) |
| Y32I+Y60L+K65A | n.d. n.d. n.d. | 0/9 |
| W53L+S63I+V64T | 4.66 4.48 4.94 | 3/9 (4.74) |
| S57E+G59E+A61W | 4.64 6.37 n.d. | 4/9 (3.75) |
| F29A+S57W+F106L | n.d. n.d. n.d. | 0/9 |
| S52R+Y60Q+K65W | 5.23 n.d. 3.71 | 0/9 |
| S55G+G56M+G59Q | n.d. n.d. n.d. | 2/9 (4.30) |
| A33I+Y60T+S63D | 3.46 5.63 n.d. | 3/9 (4.44) |
| V64Y+K65C+D107Y | n.d. n.d. n.d. | 0/9 |
| F27A+D30W+I58K | 5.13 5.77 5.41 | 8/9 (4.49) |
| M34K+G50R+S57Q | n.d. 5.52 n.d. | 1/9 (2.80) |
| I51V+V64Q+V99C | n.d. n.d. n.d. | 0/9 |
| G26N+Y105P | n.d. n.d. n.d. | 0/9 |
| H35F+S63W+F106M | n.d. n.d. n.d. | 2/9 (4.87) |
| G26E+Y32F+Y108I | 4.06 4.60 5.52 | 5/9 (4.39) |
| D30I+A33S+H35M | n.d. n.d. 4.15 | 3/9 (3.93) |
| I51H+K65I | n.d. n.d. n.d. | 0/9 |
| N54Y+G56Y+D107E | n.d. 5.73 n.d. | 1/9 (5.04) |
| F27D+I58W+V99P | n.d. n.d. n.d. | 1/9 (4.94) |
| H35R | 4.12 n.d. 4.22 | 0/9 |
| S57Y+Y105C | 4.27 n.d. n.d. | 4/9 (5.31) |
| T28Y+G56K+R101T | n.d. n.d. 2.95 | 0/9 |
| D31M+G100N+R101M | n.d. n.d. n.d. | 0/9 |
| I51E+K65F+R101G | n.d. n.d. n.d. | 0/9 |
| F29H+Y32K+G104T | n.d. n.d. n.d. | 2/9 (3.69) |
| F27R+W53P+R101A | 1.34 1.23 0.80 | 0/9 |
| S52D+D62L+D107F | n.d. n.d. n.d. | 0/9 |
| G26Y+D62G+D107P | n.d. n.d. n.d. | 0/9 |
| M34H+G102E+Y108E | n.d. n.d. n.d. | 0/9 |
| H35G+N54Y+A61V | 4.21 5.00 4.96 | 6/9 (4.83) |
| F29Y+G56K+F106L | 5.43 n.d. 5.05 | 2/9 (4.96) |
| G50L+I51A+D107P | n.d. n.d. n.d. | 2/9 (3.61) |

A selection of 4 entries from above:

| changes | log10 Kd (nM) by replicate | empty controls |
|---|---|---|
| I58V+R101I+G103E | n.d. n.d. n.d. | 0/9 |
| D31M+G100N+R101M | n.d. n.d. n.d. | 0/9 |
| F27D+I58W+V99P | n.d. n.d. n.d. | 1/9 (4.94) |
| I51H+K65I | n.d. n.d. n.d. | 0/9 |

Values reported by Engelhart et al. 2022, doi:10.1038/s41597-022-01779-4 (FLAb copy).